Measured values published in publication PMC8324913, “Development of a CNS-permeable reactivator for nerve agent exposure: an iterative, multi-disciplinary approach” (2021).
Where two headings read alike, the source gives them in different places.

Protein sequences, listed by entry. Tags and fused reporters are not part of them. Residues count along the entry.
UniProt P08183, whole entry, looked up: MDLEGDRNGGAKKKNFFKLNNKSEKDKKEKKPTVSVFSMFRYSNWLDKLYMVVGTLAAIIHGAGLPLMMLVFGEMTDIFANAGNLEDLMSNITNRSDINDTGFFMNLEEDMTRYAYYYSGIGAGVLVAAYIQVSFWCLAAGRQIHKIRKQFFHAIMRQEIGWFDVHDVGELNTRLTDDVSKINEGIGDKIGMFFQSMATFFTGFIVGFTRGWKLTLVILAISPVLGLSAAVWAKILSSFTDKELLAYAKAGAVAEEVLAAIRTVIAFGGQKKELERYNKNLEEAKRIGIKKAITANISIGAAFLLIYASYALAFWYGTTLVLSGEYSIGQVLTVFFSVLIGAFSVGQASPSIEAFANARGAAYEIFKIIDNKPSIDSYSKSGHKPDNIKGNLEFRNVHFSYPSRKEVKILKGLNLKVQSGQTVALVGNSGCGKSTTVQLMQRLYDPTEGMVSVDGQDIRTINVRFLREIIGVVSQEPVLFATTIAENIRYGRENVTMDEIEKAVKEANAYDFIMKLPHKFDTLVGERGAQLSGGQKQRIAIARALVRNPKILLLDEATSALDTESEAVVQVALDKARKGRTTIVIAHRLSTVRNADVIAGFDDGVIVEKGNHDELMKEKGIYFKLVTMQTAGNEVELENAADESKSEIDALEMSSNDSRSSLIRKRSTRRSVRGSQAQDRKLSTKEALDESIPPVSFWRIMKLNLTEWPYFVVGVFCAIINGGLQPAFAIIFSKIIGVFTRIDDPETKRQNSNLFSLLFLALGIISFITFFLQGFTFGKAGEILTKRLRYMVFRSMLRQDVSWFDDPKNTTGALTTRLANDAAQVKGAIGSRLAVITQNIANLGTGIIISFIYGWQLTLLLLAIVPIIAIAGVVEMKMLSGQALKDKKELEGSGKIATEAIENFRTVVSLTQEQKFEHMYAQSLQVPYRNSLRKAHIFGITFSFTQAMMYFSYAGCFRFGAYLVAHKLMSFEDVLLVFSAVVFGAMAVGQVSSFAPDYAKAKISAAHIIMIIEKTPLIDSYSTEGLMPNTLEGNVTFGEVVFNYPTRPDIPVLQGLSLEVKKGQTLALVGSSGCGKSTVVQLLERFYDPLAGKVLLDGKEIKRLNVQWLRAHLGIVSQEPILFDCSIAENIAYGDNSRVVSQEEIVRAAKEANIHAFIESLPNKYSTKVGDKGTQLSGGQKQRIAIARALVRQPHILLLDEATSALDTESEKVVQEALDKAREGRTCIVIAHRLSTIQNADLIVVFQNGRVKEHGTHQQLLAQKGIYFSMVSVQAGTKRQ
UniProt P10635, whole entry, looked up: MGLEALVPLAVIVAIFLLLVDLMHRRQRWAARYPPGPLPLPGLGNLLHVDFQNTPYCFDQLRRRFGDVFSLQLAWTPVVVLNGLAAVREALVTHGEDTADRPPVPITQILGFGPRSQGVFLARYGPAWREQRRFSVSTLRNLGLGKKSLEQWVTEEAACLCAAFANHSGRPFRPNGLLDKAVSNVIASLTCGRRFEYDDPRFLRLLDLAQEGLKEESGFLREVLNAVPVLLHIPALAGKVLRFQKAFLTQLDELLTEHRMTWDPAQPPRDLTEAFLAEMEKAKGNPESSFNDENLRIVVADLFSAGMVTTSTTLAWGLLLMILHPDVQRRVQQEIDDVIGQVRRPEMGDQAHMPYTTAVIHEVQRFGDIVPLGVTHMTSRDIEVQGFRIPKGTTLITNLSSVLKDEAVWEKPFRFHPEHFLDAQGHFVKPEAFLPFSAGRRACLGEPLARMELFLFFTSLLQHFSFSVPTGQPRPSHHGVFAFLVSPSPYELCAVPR
UniProt P08684, whole entry, looked up: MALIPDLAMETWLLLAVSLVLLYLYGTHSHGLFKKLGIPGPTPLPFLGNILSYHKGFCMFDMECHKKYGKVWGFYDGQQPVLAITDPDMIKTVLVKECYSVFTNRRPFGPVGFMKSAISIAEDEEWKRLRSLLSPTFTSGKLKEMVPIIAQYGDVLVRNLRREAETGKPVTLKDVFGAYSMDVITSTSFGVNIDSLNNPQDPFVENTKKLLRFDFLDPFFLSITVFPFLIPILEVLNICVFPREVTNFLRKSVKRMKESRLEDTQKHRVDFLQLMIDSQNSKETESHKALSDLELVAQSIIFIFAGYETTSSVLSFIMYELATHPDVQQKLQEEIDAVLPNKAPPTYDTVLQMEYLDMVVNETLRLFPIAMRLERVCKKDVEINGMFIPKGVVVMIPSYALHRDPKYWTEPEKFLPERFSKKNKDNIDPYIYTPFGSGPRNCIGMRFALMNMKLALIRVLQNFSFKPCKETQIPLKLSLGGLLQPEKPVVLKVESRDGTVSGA
UniProt P22303, 32-614 limits assumed: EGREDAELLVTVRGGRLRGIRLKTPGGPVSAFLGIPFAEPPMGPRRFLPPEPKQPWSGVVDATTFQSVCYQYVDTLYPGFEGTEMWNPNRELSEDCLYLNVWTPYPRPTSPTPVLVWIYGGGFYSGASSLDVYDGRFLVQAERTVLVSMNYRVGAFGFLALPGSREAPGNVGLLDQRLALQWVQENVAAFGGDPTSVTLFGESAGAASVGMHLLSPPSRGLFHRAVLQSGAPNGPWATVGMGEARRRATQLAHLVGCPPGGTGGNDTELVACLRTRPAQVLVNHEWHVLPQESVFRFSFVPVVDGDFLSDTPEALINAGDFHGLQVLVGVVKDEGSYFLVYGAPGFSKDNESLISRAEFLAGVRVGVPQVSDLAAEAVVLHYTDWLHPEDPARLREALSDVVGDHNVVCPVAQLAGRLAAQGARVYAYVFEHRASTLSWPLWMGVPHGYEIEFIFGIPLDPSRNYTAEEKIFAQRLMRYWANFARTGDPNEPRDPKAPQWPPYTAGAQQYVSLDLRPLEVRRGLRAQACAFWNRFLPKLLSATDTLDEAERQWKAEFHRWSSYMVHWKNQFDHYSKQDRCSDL

Experiments:
HCMEC/D3 monolayer = experiment: HCMEC brain endothelial cell traversal; conditions: for HCMEC Peff (mean): 100 μM in HBSS, apical to basolateral
[1] = PAMPA passive diffusion assay; conditions: for PAMPA Peff (mean): 100 μM in HBSS, 5 h, 25 °C, 0* = below UPLC limit of detection, shown as zero
p-glycoprotein (MDR1) = p-glycoprotein (MDR1) (Homo sapiens, UniProt P08183); experiment: MDR1-MDCK efflux assay; conditions: 100 μM, 180 min, 37 °C, NFR > 1 = possible substrate
[2] = reported for RS-194B; cited from earlier work
[3] = Microsomal stability (substrate depletion); conditions: human liver microsomes, 1 hour at 37 °C; >30 min good
CYP2D6 = CYP2D6 (Homo sapiens, UniProt P10635); experiment: Cytochrome P450 inhibition, fluorescent substrates; conditions: read-out: P450 inhibition IC50, CYP2D6/AMMC; fluorescent substrate AMMC, 37 °C
CYP3A4 = CYP3A4 (Homo sapiens, UniProt P08684); experiment: Cytochrome P450 inhibition, fluorescent substrates; conditions: read-out: P450 inhibition IC50, CYP3A4/BFC; fluorescent substrate BFC, 37 °C
[4] = Biodistribution and brain penetration
[5] = In vivo plasma pharmacokinetics; conditions: for t1/2α: plasma, mean of six ± SE
Plasma stability = conditions: human plasma, 1 hour at 37 °C; > 85% good
[6] = target: VX-adducted recombinant human AChE (Homo sapiens, UniProt P22303); conditions: historical data, identical conditions except DMSO; cited from earlier work
[7] = target: GB-adducted recombinant human AChE (Homo sapiens, UniProt P22303); conditions: historical data, identical conditions except DMSO; cited from earlier work
[8] = target: NIMP-adducted acetylcholinesterase (Homo sapiens, UniProt P22303); experiment: Acetylcholinesterase reactivation screening (modified Ellman's assay); conditions: 100 µM oxime, NIMP-adducted AChE, fraction relative to control AChE
[9] = reported for 2-PAM; cited from earlier work

In the case of CC(C)(C)OC(=O)NC1CCN(C(=O)/C=N/O)C1 (centres unmarked), the “HCMEC Peff (mean)” value (HCMEC/D3 monolayer) is reported as 1.94e-05 cm/s.
For O=C(/C=N/O)NCCN1CCCCCC1, the “HCMEC Peff (mean)” value (HCMEC/D3 monolayer) was 2.59e-05 cm/s, the “HCMEC Peff (mean)” value (HCMEC/D3 monolayer; listed as RS-194B) was 2.6 ± 1.4 × 10^–5 cm/s and the “PAMPA Peff (mean)” value [1] was 2.15e-07 cm/s. The “PAMPA Peff (mean)” value ([1]; listed as RS-194B) was 2.1 ± 0.8 × 10^–7 cm/s, the “MDR1 (net flux ratio) (mean)” value (p-glycoprotein (MDR1)) was 0.72 and the brain:plasma ratio [2] was 0.04.
In the case of C[C@@H](CN1CCCc2ccccc2C1)NC(=O)/C=N/O, the “Microsomal stability t1/2” value [3] is reported as “greater than 60 min”, the IC50 (CYP2D6) is reported as 1500 nM and the IC50 (CYP3A4) is reported as 7.4 µM. The “HCMEC Peff (mean)” value (HCMEC/D3 monolayer) was 3.9 ± 1.4 × 10^–5 cm/s, the “HCMEC Peff (mean)” value (HCMEC/D3 monolayer; listed as 1, LLNL-02) was 3.9e-05 cm/s and the “Endothelial permeability relative to diazepam” value (HCMEC/D3 monolayer; HCMEC Peff ratio, P = 0.0003) was 0.5 fold. For the same compound, the “Endothelial permeability relative to 2-PAM” value (HCMEC/D3 monolayer; HCMEC Peff ratio, P = 0.0007) was 3.9 fold, the “Cmax in the brain” value ([4]; 10 mg/kg IV dose) was 4.25 ng/mg tissue and the “brain accumulation as percent of the total administered dose” value ([4]; 10 mg/kg LLNL-02) was 0.61%. For the same compound, the “brain concentration/accumulation relative to RS-194B” value ([4]; 10 mg/kg, same dose level, RS-194B data ref 30) was 20 times, the Brain/plasma ([4]; at Tmax, single IV 20 mg/kg 14C-LLNL-02, male guinea pigs) was 0.529 and the “decrease of brain/plasma ratio over the time course” value ([4]; average for the 4 doses, 0.08 h–24 h) was 62.7%. For the same compound, the “time of Cmax in the brain” value ([4]; post dose, first sampling time-point) was 5 min, the “PAMPA Peff (mean)” value [1] was 3.7 ± 1.3 × 10^–6 cm/s and the “PAMPA Peff (mean)” value ([1]; listed as 1, LLNL-02) was 3.73e-06 cm/s. For the same compound, the “PAMPA permeability relative to compound 23” value ([1]; higher than compound 23) was over 10 fold, the “MDR1 (net flux ratio) (mean)” value (p-glycoprotein (MDR1)) was 5.3 ± 1.3 and the “MDR1 (net flux ratio) (mean)” value (p-glycoprotein (MDR1); listed as 1, LLNL-02) was 5.31. For the same compound, the “t1/2 β relative to 2-PAM” value ([5]; longer than the range observed for 2-PAM) was 2–3 times, the t1/2α ([5]; single IV 1 mg/kg 14C-LLNL-02, male guinea pigs) was 23.4 ± 0.6 min and the t1/2α ([5]; single IV 5 mg/kg 14C-LLNL-02, male guinea pigs) was 24 ± 1.2 min. For the same compound, the t1/2α ([5]; single IV 10 mg/kg 14C-LLNL-02, male guinea pigs) was 15 ± 1.8 min, the t1/2α ([5]; single IV 20 mg/kg 14C-LLNL-02, male guinea pigs) was 23.4 ± 3.6 min and the “Plasma stability (percent remaining)” value (Plasma stability) was “greater than 90%”.
In the case of CN(C)C1CCN(C(=O)/C=N/O)C1 (centres unmarked), the “HCMEC Peff (mean)” value (HCMEC/D3 monolayer) is reported as 4.8e-05 cm/s.
In the case of O=C(/C=N/O)N1CCC(N2CCCCC2)CC1, the “HCMEC Peff (mean)” value (HCMEC/D3 monolayer) is reported as 5.67e-05 cm/s.
With O=C(/C=N/O)N1CCN(CC2CCCC2)CC1 the “HCMEC Peff (mean)” value (HCMEC/D3 monolayer) was 7.24e-05 cm/s, the “PAMPA Peff (mean)” value [1] was 3.37e-06 cm/s and the “MDR1 (net flux ratio) (mean)” value (p-glycoprotein (MDR1)) was 0.75.
With O=C(/C=N/O)N1CCCN(C(=O)/C=N/O)CC1 the “HCMEC Peff (mean)” value (HCMEC/D3 monolayer) was 3.67e-05 cm/s and the “PAMPA Peff (mean)” value [1] was 1.59e-07 cm/s.
With O=C(/C=N/O)NCc1ccccc1 the “HCMEC Peff (mean)” value (HCMEC/D3 monolayer) was 5.49e-05 cm/s and the “PAMPA Peff (mean)” value [1] was 1.47e-06 cm/s.
With O=C(/C=N/O)NCCN1CCCC1 the “HCMEC Peff (mean)” value (HCMEC/D3 monolayer) was 3.14e-05 cm/s, the “PAMPA Peff (mean)” value [1] was 2.93e-07 cm/s and the “MDR1 (net flux ratio) (mean)” value (p-glycoprotein (MDR1)) was 0.46.
With CN(C)CCNC(=O)/C=N/O the “HCMEC Peff (mean)” value (HCMEC/D3 monolayer) was 1.79e-05 cm/s, the “PAMPA Peff (mean)” value [1] was 1.01e-07 cm/s and the “MDR1 (net flux ratio) (mean)” value (p-glycoprotein (MDR1)) was 0.36.
In the case of O=C(/C=N/O)NC1CC1, the “PAMPA Peff (mean)” value [1] is reported as 1.39e-06 cm/s.
With O=C(/C=N/O)N1CCN(CCc2cccs2)CC1 the “HCMEC Peff (mean)” value (HCMEC/D3 monolayer) was 5.13e-05 cm/s and the “PAMPA Peff (mean)” value [1] was 4.38e-06 cm/s.
In the case of O=C(/C=N/O)NCCN1CCOCC1, the “HCMEC Peff (mean)” value (HCMEC/D3 monolayer) is reported as 2.49e-05 cm/s and the “PAMPA Peff (mean)” value [1] is reported as 1.05e-07 cm/s.
In the case of CC(C)CN1CCN(C(=O)/C=N/O)CC1, the “PAMPA Peff (mean)” value [1] is reported as 1.88e-06 cm/s and the “MDR1 (net flux ratio) (mean)” value (p-glycoprotein (MDR1)) is reported as 1.27.
In the case of CC(C)(C)OC(=O)N1CC(NC(=O)/C=N/O)C1, the “HCMEC Peff (mean)” value (HCMEC/D3 monolayer) is reported as 3.23e-05 cm/s, the “PAMPA Peff (mean)” value [1] is reported as 1.24e-06 cm/s and the “MDR1 (net flux ratio) (mean)” value (p-glycoprotein (MDR1)) is reported as 1.25.
For C[C@@H](CN1CCc2ccccc2CC1)NC(=O)/C=N/O, the “PAMPA Peff (mean)” value [1] was 2.68e-06 cm/s.
In the case of C[n+]1ccccc1/C=N/O, the “Overall reactivation rate, kr2” value [6] is given as 121 ± 29 min⁻¹ M⁻¹, the “Reactivation rate, kr” value [6] is given as 0.06 ± 0.005 min⁻¹ and the “Overall reactivation rate, kr2” value [7] is given as 81 ± 16 min⁻¹ M⁻¹. The “Reactivation rate, kr” value [7] was 0.06 ± 0.02 min⁻¹, the “Fraction reactivated (t = 30 min) (mean)” value [8] was 0.903 and the t1/2α [9] was 18.6 min.
For CC1CCN(CC(C)NC(=O)/C=N/O)CC1 (centres unmarked), the “HCMEC Peff (mean)” value (HCMEC/D3 monolayer) was 4.26e-05 cm/s and the “PAMPA Peff (mean)” value [1] was 3.19e-07 cm/s.
For O=C(/C=N/O)NC1CCC1, the “PAMPA Peff (mean)” value [1] was 2.86e-06 cm/s.
For CCC(CN1CCCC1)NC(=O)/C=N/O (centres unmarked), the “HCMEC Peff (mean)” value (HCMEC/D3 monolayer) was 5.86e-05 cm/s and the “PAMPA Peff (mean)” value [1] was 5.53e-08 cm/s.
For CCCCNC(=O)/C=N/O, the “HCMEC Peff (mean)” value (HCMEC/D3 monolayer) was 6.65e-05 cm/s, the “PAMPA Peff (mean)” value [1] was 6.05e-06 cm/s and the “MDR1 (net flux ratio) (mean)” value (p-glycoprotein (MDR1)) was 1.14.
In the case of NCCNC(=O)/C=N/O, the “HCMEC Peff (mean)” value (HCMEC/D3 monolayer) is reported as 8.09e-06 cm/s, the “PAMPA Peff (mean)” value [1] is reported as 1.05e-07 cm/s and the “MDR1 (net flux ratio) (mean)” value (p-glycoprotein (MDR1)) is reported as 0.40.
For O=C(/C=N/O)NCCCN1CCCCC1, the “HCMEC Peff (mean)” value (HCMEC/D3 monolayer) was 5.35e-06 cm/s, the “PAMPA Peff (mean)” value [1] was 3.03e-07 cm/s and the “MDR1 (net flux ratio) (mean)” value (p-glycoprotein (MDR1)) was 0.51.
In the case of CC(CN1CCCCCC1)NC(=O)/C=N/O (centres unmarked), the “HCMEC Peff (mean)” value (HCMEC/D3 monolayer) is reported as 4.43e-05 cm/s and the “PAMPA Peff (mean)” value [1] is reported as 1.92e-07 cm/s.
With CC(CN1CCCCC1)NC(=O)/C=N/O (centres unmarked) the “HCMEC Peff (mean)” value (HCMEC/D3 monolayer) was 1.11e-05 cm/s and the “PAMPA Peff (mean)” value [1] was 1.58e-07 cm/s.
In the case of O=C(/C=N/O)NC1CCCC1, the “HCMEC Peff (mean)” value (HCMEC/D3 monolayer) is reported as 6.04e-05 cm/s, the “PAMPA Peff (mean)” value [1] is reported as 3.95e-06 cm/s and the “MDR1 (net flux ratio) (mean)” value (p-glycoprotein (MDR1)) is reported as 0.97.
In the case of CN1CCCN(C(=O)/C=N/O)CC1, the “HCMEC Peff (mean)” value (HCMEC/D3 monolayer) is reported as 7.36e-05 cm/s.
For O=C(/C=N/O)N1CCN(Cc2cccc(Cl)c2)CC1, the “PAMPA Peff (mean)” value [1] was 2.94e-06 cm/s and the “MDR1 (net flux ratio) (mean)” value (p-glycoprotein (MDR1)) was 1.12.
With CC(C)(C)OC(=O)N1CC[C@H](NC(=O)/C=N/O)C1 the “HCMEC Peff (mean)” value (HCMEC/D3 monolayer) was 3.16e-05 cm/s, the “PAMPA Peff (mean)” value [1] was 1.57e-06 cm/s and the “MDR1 (net flux ratio) (mean)” value (p-glycoprotein (MDR1)) was 8.90.
With CCN(CC)CC(C)NC(=O)/C=N/O (centres unmarked) the “HCMEC Peff (mean)” value (HCMEC/D3 monolayer) was 4.55e-05 cm/s and the “PAMPA Peff (mean)” value [1] was 1.96e-08 cm/s.
With CC(C)(C)OC(=O)N1CCCC(NC(=O)/C=N/O)C1 (centres unmarked) the “HCMEC Peff (mean)” value (HCMEC/D3 monolayer) was 7.53e-05 cm/s, the “PAMPA Peff (mean)” value [1] was 3.18e-06 cm/s and the “MDR1 (net flux ratio) (mean)” value (p-glycoprotein (MDR1)) was 3.78.
With O=C(/C=N/O)N1CCN(Cc2ccc(Cl)cc2)CC1 the “HCMEC Peff (mean)” value (HCMEC/D3 monolayer) was 5.68e-05 cm/s, the “PAMPA Peff (mean)” value [1] was 4.67e-06 cm/s and the “MDR1 (net flux ratio) (mean)” value (p-glycoprotein (MDR1)) was 0.64.
In the case of CC(CN(C)C)NC(=O)/C=N/O (centres unmarked), the “HCMEC Peff (mean)” value (HCMEC/D3 monolayer) is reported as 1.1e-05 cm/s.
With CC(C)(C)OC(=O)NCCNC(=O)/C=N/O the “HCMEC Peff (mean)” value (HCMEC/D3 monolayer) was 5.11e-05 cm/s and the “PAMPA Peff (mean)” value [1] was 2.94e-07 cm/s.
